Experimental data as given in ChEMBL document CHEMBL5365408, “Small molecule inhibitors of PCSK9. SAR investigations of head and amine groups” (Bioorg Med Chem Lett, 2023).

Chains of the proteins cited; added tags and fusions are not shown. Residues count along the entry.
UniProt Q8NBP7, 31-152 limits assumed: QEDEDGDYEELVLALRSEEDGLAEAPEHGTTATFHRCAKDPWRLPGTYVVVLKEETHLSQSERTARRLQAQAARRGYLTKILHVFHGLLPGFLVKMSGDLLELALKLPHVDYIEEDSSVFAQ
UniProt Q8NBP7, 153-692 limits assumed: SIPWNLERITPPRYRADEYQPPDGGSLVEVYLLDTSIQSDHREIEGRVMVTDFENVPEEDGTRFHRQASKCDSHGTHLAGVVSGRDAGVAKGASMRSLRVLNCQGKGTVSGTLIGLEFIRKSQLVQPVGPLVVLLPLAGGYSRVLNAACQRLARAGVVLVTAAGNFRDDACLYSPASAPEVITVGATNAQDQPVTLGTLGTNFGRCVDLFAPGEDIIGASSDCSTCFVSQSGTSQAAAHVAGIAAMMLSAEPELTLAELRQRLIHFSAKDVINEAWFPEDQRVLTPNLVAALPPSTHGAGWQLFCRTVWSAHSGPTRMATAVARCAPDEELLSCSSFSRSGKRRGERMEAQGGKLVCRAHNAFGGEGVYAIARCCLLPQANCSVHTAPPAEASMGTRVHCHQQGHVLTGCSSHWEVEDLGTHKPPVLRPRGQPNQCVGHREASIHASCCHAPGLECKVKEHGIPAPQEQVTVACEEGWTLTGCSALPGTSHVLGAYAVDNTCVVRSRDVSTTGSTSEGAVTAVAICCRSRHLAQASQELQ

Biological target: Proprotein convertase subtilisin/kexin type 9 (Homo sapiens, UniProt Q8NBP7)
Assay: Inhibition of full length human PCSK9 expressed in human Huh-7 cells by ELISA analysis
Assay type: cell-based

- IC50: 1460 nM
Compound: Cc1cnc2c(c1)nnn2-c1ccc(C(=O)N(c2ncccc2Cl)[C@@H]2CCCNC2)nc1
